Consider 26 compounds from patent US11186582B2, “Substituted [1,2,4]triazolo[1,5-a]pyrimidin-7-yl compounds as PDE2 inhibitors” (DART NEUROSCIENCE (CAYMAN) LTD., priority 2014, dated 2021).

Chains of the proteins cited; added tags and fusions are not shown. Residues count along the entry.
UniProt O00408, 2-941: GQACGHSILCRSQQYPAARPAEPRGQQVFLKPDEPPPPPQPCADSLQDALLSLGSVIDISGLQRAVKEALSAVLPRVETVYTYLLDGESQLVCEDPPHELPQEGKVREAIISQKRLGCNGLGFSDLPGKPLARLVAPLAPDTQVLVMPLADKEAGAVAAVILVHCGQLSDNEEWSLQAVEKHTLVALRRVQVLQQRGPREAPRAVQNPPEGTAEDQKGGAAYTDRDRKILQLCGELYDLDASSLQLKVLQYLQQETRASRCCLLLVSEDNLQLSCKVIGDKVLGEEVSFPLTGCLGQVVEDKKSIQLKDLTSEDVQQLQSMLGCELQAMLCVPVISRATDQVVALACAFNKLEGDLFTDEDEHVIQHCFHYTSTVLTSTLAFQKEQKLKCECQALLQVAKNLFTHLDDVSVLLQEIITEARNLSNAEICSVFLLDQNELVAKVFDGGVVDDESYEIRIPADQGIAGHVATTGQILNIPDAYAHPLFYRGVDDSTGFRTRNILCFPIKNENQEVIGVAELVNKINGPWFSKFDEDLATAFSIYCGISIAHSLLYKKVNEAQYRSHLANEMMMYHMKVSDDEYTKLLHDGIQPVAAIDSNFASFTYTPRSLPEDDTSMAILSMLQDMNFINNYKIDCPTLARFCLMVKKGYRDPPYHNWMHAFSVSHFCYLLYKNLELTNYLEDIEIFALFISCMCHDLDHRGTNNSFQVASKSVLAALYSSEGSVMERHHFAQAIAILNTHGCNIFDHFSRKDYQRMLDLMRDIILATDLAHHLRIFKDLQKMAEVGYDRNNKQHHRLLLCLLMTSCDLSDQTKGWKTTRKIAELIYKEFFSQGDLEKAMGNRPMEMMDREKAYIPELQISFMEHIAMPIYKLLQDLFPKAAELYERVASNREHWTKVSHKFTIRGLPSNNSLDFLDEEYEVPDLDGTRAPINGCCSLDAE

The structures appear in SMILES notation.

In general, IC50 refers to the concentration that gives 50% inhibition.

The test has as its target FLAG-tagged PDE2A1 (amino acids 2-941) (Homo sapiens (Human), UniProt O00408). As to the kind of experiment: IMAP TR-FRET PDE2A phosphodiesterase enzymatic assay. (TR-FRET usually uses a lanthanide donor and a delayed reading to cut background.)
`Cc1cc(C2CCCN(Cc3ccc(-c4ccc(Cl)cc4)cc3F)C2)n2ncnc2n1` (centres unmarked) [Example 20, 1-{[4-(4-Chlorophenyl)-2-fluorophenyl]methyl}-3-{5-methyl-[1,2,4]triazolo[1,5-a]pyrimidin-7-yl}piperidine] came in with a 50% inhibitory concentration (IC50) of 0.1 to 1 µM.
On to `Cc1cc(C2CCCN(Cc3ccc(-c4cccc(Cl)c4)cc3F)C2)n2ncnc2n1` (centres unmarked) [Example 21, 1-{[4-(3-Chlorophenyl)-2-fluorophenyl]methyl}-3-{5-methyl-[1,2,4]triazolo[1,5-a]pyrimidin-7-yl}piperidine], for which the IC50 lay within 0.1 to 1 µM.
`Cc1cc(C2CCCN(Cc3ccc(-c4ccccc4Cl)cc3F)C2)n2ncnc2n1` (centres unmarked) [Example 22, 1-{[4-(2-Chlorophenyl)-2-fluorophenyl]methyl}-3-{5-methyl-[1,2,4]triazolo[1,5-a]pyrimidin-7-yl}piperidine] displayed an IC50 of 1 to 10 µM.
Consider `Cc1cc(C2CCCN(Cc3ccc(-c4ccncc4)cc3F)C2)n2ncnc2n1` (centres unmarked) [Example 23, 4-{3-Fluoro-4-[(3-{5-methyl-[1,2,4]triazolo[1,5-a]pyrimidin-7-yl}piperidin-1-yl)methyl]phenyl}pyridine], for which the IC50 fell in the range of 0.1 to 1 µM.
Next, `Cc1cc(C2CCCN(Cc3cc(-c4ccccc4Cl)ccc3F)C2)n2ncnc2n1` (centres unmarked) [Example 24, 1-{[5-(2-Chlorophenyl)-2-fluorophenyl]methyl}-3-{5-methyl-[1,2,4]triazolo[1,5-a]pyrimidin-7-yl}piperidine]: 1 to 10 µM.
The compound `Cc1cc(C2CCCN(Cc3cc(-c4ccc(F)cc4Cl)ccc3F)C2)n2ncnc2n1` (centres unmarked) [Example 25, 1-{[5-(2-Chloro-4-fluorophenyl)-2-fluorophenyl]methyl}-3-{5-methyl-[1,2,4]triazolo[1,5-a]pyrimidin-7-yl}piperidine] came in with a 50% inhibitory concentration (IC50) of 1 to 10 µM.
In the case of `Cc1cc(C2CCCN(Cc3cc(-c4cccnc4)ccc3F)C2)n2ncnc2n1` (centres unmarked) [Example 26, 3-{4-Fluoro-3-[(3-{5-methyl-[1,2,4]triazolo[1,5-a]pyrimidin-7-yl}piperidin-1-yl)methyl]phenyl}pyridine], the IC50 was 1 to 10 µM.
For `Cc1cc(C2CCCN(Cc3cc(-c4ccncc4)ccc3F)C2)n2ncnc2n1` (centres unmarked) [Example 27, 4-{4-Fluoro-3-[(3-{5-methyl-[1,2,4]triazolo[1,5-a]pyrimidin-7-yl}piperidin-1-yl)methyl]phenyl}pyridine], the half-inhibitory concentration (IC50) was 1 to 10 µM.
In the case of `Cc1cc(C2CCCN(Cc3cccc(-c4ccc(Cl)cc4)c3)C2)n2ncnc2n1` (centres unmarked) [Example 28, 1-{[3-(4-Chlorophenyl)phenyl]methyl}-3-{5-methyl-[1,2,4]triazolo[1,5-a]pyrimidin-7-yl}piperidine] it was 1 to 10 µM; in that of `Cc1cc(C2CCCN(Cc3cccc(-c4cccc(Cl)c4)c3)C2)n2ncnc2n1` (centres unmarked) [Example 29, 1-{[3-(3-Chlorophenyl)phenyl]methyl}-3-{5-methyl-[1,2,4]triazolo[1,5-a]pyrimidin-7-yl}piperidine], 0.1 to 1 µM.
In the case of `Cc1cc(C2CCCN(Cc3cccc(-c4ccccc4Cl)c3)C2)n2ncnc2n1` (centres unmarked) [Example 30, 1-{[3-(2-Chlorophenyl)phenyl]methyl}-3-{5-methyl-[1,2,4]triazolo[1,5-a]pyrimidin-7-yl}piperidine] it was 1 to 10 µM.
Turning to `Cc1cc(C2CCCN(Cc3ccc(-c4ccncc4)cc3)C2)n2ncnc2n1` (centres unmarked) [Example 31, 4-{4-[(3-{5-Methyl-[1,2,4]triazolo[1,5-a]pyrimidin-7-yl}piperidin-1-yl)methyl]phenyl}pyridine], the IC50 was 0.1 to 1 µM.
As for `Cc1cc(C2CCCN(Cc3ccc(-c4ccc(F)cc4Cl)cc3F)C2)n2ncnc2n1` (centres unmarked) [Example 32, 1-{[4-(2-Chloro-4-fluorophenyl)-2-fluorophenyl]methyl}-3-{5-methyl-[1,2,4]triazolo[1,5-a]pyrimidin-7-yl}piperidine], the IC50 lay in the range of 1 to 10 µM.
In the case of `Cc1cc(C2CCCN(Cc3cc(-c4ccc(Cl)cc4)ccc3F)C2)n2ncnc2n1` (centres unmarked) [Example 33, 1-{[5-(4-Chlorophenyl)-2-fluorophenyl]methyl}-3-{5-methyl-[1,2,4]triazolo[1,5-a]pyrimidin-7-yl}piperidine] it was 1 to 10 µM; in that of `Cc1cc(C2CCCN(Cc3cc(-c4cccc(Cl)c4)ccc3F)C2)n2ncnc2n1` (centres unmarked) [Example 34, 1-{[5-(3-Chlorophenyl)-2-fluorophenyl]methyl}-3-{5-methyl-[1,2,4]triazolo[1,5-a]pyrimidin-7-yl}piperidine], 0.1 to 1 µM; in that of `Cc1cc(C2CCCN(Cc3cccc(-c4ccc(F)cc4Cl)c3)C2)n2ncnc2n1` (centres unmarked) [Example 35, 1-{[3-(2-Chloro-4-fluorophenyl)phenyl]methyl}-3-{5-methyl-[1,2,4]triazolo[1,5-a]pyrimidin-7-yl}piperidine], 1 to 10 µM.
In the case of `Cc1cc(C2CCCN(Cc3ccc(-c4cccnc4)cc3F)C2)n2ncnc2n1` (centres unmarked) [Example 36, 3-{3-Fluoro-4-[(3-{5-methyl-[1,2,4]triazolo[1,5-a]pyrimidin-7-yl}piperidin-1-yl)methyl]phenyl}pyridine] it was 0.1 to 1 µM; in that of `Cc1cc(C2CCCN(Cc3c(F)cc(-c4cccnc4)cc3F)C2)n2ncnc2n1` (centres unmarked) [Example 37, 7-(1-(2,6-Difluoro-4-(pyridin-3-yl)benzyl)piperidin-3-yl)-5-methyl-[1,2,4]triazolo[1,5-a]pyrimidine], 1 to 10 µM.
Take `Cc1cc(C2CCCN(Cc3cccc(-c4cccnc4)c3)C2)n2ncnc2n1` (centres unmarked) [Example 38, 3-{3-[(3-{5-Methyl-[1,2,4]triazolo[1,5-a]pyrimidin-7-yl}piperidin-1-yl)methyl]phenyl}pyridine]: the IC50 lay in the range of 0.1 to 1 µM.
Next, `Cc1cc(C2CCCN(Cc3cccc(-c4ccncc4)c3)C2)n2ncnc2n1` (centres unmarked) [Example 39, 4-{3-[(3-{5-Methyl-[1,2,4]triazolo[1,5-a]pyrimidin-7-yl}piperidin-1-yl)methyl]phenyl}pyridine]: 1 to 10 µM; `COc1ccc(CN2CCCC(c3cc(C)nc4ncnn34)C2)cc1OC` (centres unmarked) [Example 40, 1-[(3,4-Dimethoxyphenyl)methyl]-3-{5-methyl-[1,2,4]triazolo[1,5-a]pyrimidin-7-yl}piperidine]: > 10 µM.
As to `Cc1cc(C2CCCN(Cc3cccc4ccccc34)C2)n2ncnc2n1` (centres unmarked) [Example 41, 3-{5-Methyl-[1,2,4]triazolo[1,5-a]pyrimidin-7-yl}-1-(naphthalen-1-ylmethyl)piperidine], the IC50 fell in the range of 0.1 to 1 µM.
With `Cc1cc(C2CCCN(Cc3ccc(Cl)cc3C)C2)n2ncnc2n1` (centres unmarked) [Example 42, 1-[(4-Chloro-2-methylphenyl)methyl]-3-{5-methyl-[1,2,4]triazolo[1,5-a]pyrimidin-7-yl}piperidine], the half-maximal inhibitory concentration (IC50) was > 10 µM.
Consider `Cc1cc(C2CCCN(Cc3ccc(N4CCOCC4)cc3)C2)n2ncnc2n1` (centres unmarked) [Example 43, 4-{4-[(3-{5-Methyl-[1,2,4]triazolo[1,5-a]pyrimidin-7-yl}piperidin-1-yl)methyl]phenyl}morpholine], for which the IC50 is > 10 µM.
Next, `Cc1cc(C2CCCN(Cc3ccc(F)c(C(F)(F)F)c3)C2)n2ncnc2n1` (centres unmarked) [Example 44, 1-{[4-Fluoro-3-(trifluoromethyl)phenyl]methyl}-3-{5-methyl-[1,2,4]triazolo[1,5-a]pyrimidin-7-yl}piperidine]: > 10 µM.
`Cc1cc(C2CCCN(Cc3cccc(-c4ccco4)c3)C2)n2ncnc2n1` (centres unmarked) [Example 45, 1-{[3-(Furan-2-yl)phenyl]methyl}-3-{5-methyl-[1,2,4]triazolo[1,5-a]pyrimidin-7-yl}piperidine] had a half-maximal inhibitory concentration (IC50) of 0.1 to 1 µM.
